Laboratory results published in patent publication US7183251B1, “hCG therapy for the treatment of breast cancer” (Fox Chase Cancer Center, priority 1998, dated 2007).

Key:
[1] = test system: DMBA-induced rat mammary carcinomas; experiment: Prevention of DMBA-induced rat mammary carcinomas (Regimens 1-3); format: in vivo
Method: Evaluation of the efficacy of r-hCG in the prevention of mammary cancer: Regimens 1–9 utilized in the experiments described below are shown schematically in FIG. 4. The animals utilized in Regimens 1–9 consisted of 450 intact virgin Sprague-Dawley rats that were purchased from Taconic Farms (New York, N.Y.).
The potential of hCG to inhibit the initiation of DMBA-induced rat mammary carcinomas was evaluated in intact virgin rats treated with placebo (Regimen 1); 100 IU r-hCG/day (Regimen 2), or 100 IU u-hCG/day (Regimen 3). All animals were injected daily for 21 days, starting when the rats were 45 days old. The carcinogen DMBA was administered as a single intragastric dose (8 mg/100 g body weight) given 21 days after the last injection of placebo or hormone. Under these protocols the first effect evaluated was the appearance of tumors detected by palpation and their location with regards to specific mammary glands. Other parameters evaluated were the rate of tumor growth, tumor ulceration, and tumor regression or ulcer healing and tumor necrosis in response to the hormonal treatment.
All treatments were initiated when the animals were 45 days old. For Regimen 1 fifty rats received a daily intraperitoneal (ip) injection of 0.5 ml placebo for 21 days. Under Regimens 2 and 3 the same number of animals received for 21 days 100 IU/day of r-hCG or u-hCG (Steris Laboratories, Phoenix, Ariz.) respectively. Twenty-one days after completion of the last injection, when the animals were 87 days old, the three groups of animals were inoculated with a single intragastric (ig) dose of 8 mg DMBA (Sigma Chemical Co., St. Louis, Mo.) per 100 g body weight (bw). Thereafter all the animals were palpated periodically for detection of tumor development and determination of tumor growth rate. Final tumorigenic response was evaluated 15 weeks after administration of DMBA.
(§1) Evaluation of Final Tumorigenic Response. […] The tumors were rapidly dissected, measured in three dimensions, and serially sliced. Adjacent slices were:
(§2) The following criteria were utilized for evaluating the final tumorigenic response:
(§3) 1. Rate of tumor growth, based on sequential measurement of the two largest diameters of tumors in live animals utilizing a Vernier Caliper and expressing the results in mm.
(§4) 2. Final tumor size, based on measurement of the length, width and height of dissected tumors with a Vernier Caliper. Results were expressed in mm. A progressively smaller tumor size in successive measurements was indicative of tumor regression. Palpable tumors that had disappeared at the time of dissection were considered to be 100% regressed. The mammary tissue in which the tumor had been originally identified was fixed in 10% NBF for histopathological analysis.
(§5) 5. Statistical Analysis. The significance of the differences in tumorigenic response among the groups was determined by Chi Square analysis and Student's T test.

[2] = test system: DMBA-induced rat mammary carcinomas; experiment: Effect on early tumor development after DMBA (Regimens 4-6); format: in vivo; conditions: 100 IU/day ip 40 days starting 21 days after DMBA, Regimens 5, 6
Method: Evaluation of the therapeutic efficiency of r-hCG on mammary cancer. The tumoristatic and tumoricidal efficacy of r-hCG and u-hCG on early and advanced mammary cancer was tested in intact virgin rats that had received a single dose of DMBA when they were 45 days old (FIG. 4, Regimens 4–9). The effect on early tumor development was tested under Regimens 4, 5, and 6. It was evaluated by initiating r-hCG treatment 20 days after DMBA administration, when early lesions, such as intraductal proliferations (IDPs) and carcinomas in situ (CIS) are already present, but there are no palpable tumors as yet. The effect on advanced tumor development was evaluated by starting the hormonal treatment 60 days after DMBA administration, or when palpable tumors had reached at least 1 cm in maximal diameter (Regimens 7, 8, and 9). In both groups the hormone was administered for 40 days and final tumorigenic response was evaluated 20 weeks post-DMBA administration. The effect of the hormonal treatment on the rate of tumor growth, with special emphasis on tumor regression, absence of skin ulceration, and final tumor size and necrosis were evaluated at the time of assessment of the final tumorigenic response.
For Regimens 4–9, 300 animals were inoculated with a single ig dose of 8 mg DMBA/100 g bw when they were 45 days old. Tumorigenic response was evaluated by palpation of the right and left mammary cervical, thoracic, abdominal and inguinal areas and from ventral to dorsolateral extensions of the glands. All tumors were sequentially numbered in the order they had appeared, their location was recorded, and the rate of tumor growth was determined by measurement of tumor size with a Vernier caliper. All changes in the health status of the animals, rapid tumor growth or skin ulceration were recorded. Those animals in which the tumors were excessively large or became ulcerated were euthanized, irrespectively of the stage of the hormonal treatment, in compliance with IACUC regulations. Those animals that were euthanized before initiation or before the completion of the hormonal treatments were deleted from the statistical analysis of the final tumorigenic response.
Regimens 4–6 were designed for testing the effect of the hormonal treatments on early tumor development. Twenty one days after DMBA administration those animals allocated to Regimen 4 started receiving a daily ip injection of 0.5 ml placebo for 40 days. Under Regimens 5 and 6 the same number of animals received for 40 days 100 IU/day of r-hCG or u-hCG, respectively. All the animals were palpated biweekly for detection of tumor development and determination of tumor growth rate. Final tumorigenic response was evaluated 20 weeks after administration of DMBA.
as §1, §2, §3, §4, §5

[3] = 100 IU/day ip 21 days before DMBA, Regimens 2, 3

Substance: r-hCG: recombinant human chorionic gonadotropin, glycoprotein hormone composed of two non-covalently linked (α and β) subunits
- No. Tumors/Animal [1, 3]: 0.10
- Percentage (animals with tumors) [1, 3]: 8.1
- Total No. Tumors [1, 3]: 5
- No. An. With Tumors ([1]; 100 IU/day ip 21 days from age 45 days, DMBA 21 days after last injection, 15 weeks post-DMBA): 4/49 and 4
- No. An. With Tumors ([2]; 20 weeks post-DMBA): 38/49 and 38
- No. Tumors/Animal [2]: 2.2
- Percentage (animals with tumors) [2]: 77.5
- Total No. Tumors [2]: 111

“And” between values parts separate entries of the source, which are not always exact repeats. Equal values may be shown once.
